# Assay results published in PubChem BioAssay AID624288 (National Center for Advancing Translational Sciences (NCATS), 2012).
# The whole screen tested about 340,000 compounds, of which about 1,400 (0.41%) were called active. These results got no clear call from the source, so the numbers are uncertain. The call rests on the fitted dose curve; cell line not stated here.
# Experiment: qHTS for Antagonists of gsp, the Etiologic Mutation Responsible for Fibrous Dysplasia/McCune-Albright Syndrome: qHTS; further: nearly all actives have a fitted effect of over 65% in size
# Conditions: gsp-mutant cells, cAMP HTRF, 30 min
# Potency means the concentration at half of the fitted maximal effect.
row,SMILES,Potency
1,COc1ccc2nc(NP(=O)(c3ccccc3)c3ccccc3)sc2c1,inconclusive: 28.2 µM
2,Cc1ccc2nc3c(c(C)c2c1)CC(C(Cl)Cl)S3 (stereo not given),inconclusive: 14.1 µM
3,CS(=O)(=O)c1ccc(Cl)c(NC(=O)COC(=O)C(O)(c2ccccc2)c2ccccc2)c1,inconclusive: 44.7 µM
4,Cc1ccc(NCCc2c([N+](=O)[O-])cc([N+](=O)[O-])cc2[N+](=O)[O-])cc1,inconclusive: 2.24 µM
5,O=P(Nc1nc2ccc(Cl)cc2s1)(c1ccccc1)c1ccccc1,inconclusive: 31.6 µM
